# Several values for one entry are separate records, joined by “and”; a condition that tells them apart may be missing. Where a call stands in place of a potency, no number is given. Equal values may be shown once. For some assays here: This list holds what a sample rich in hits left over. Records with an inconclusive call do not appear. Some structures have more than one record in an assay (separate samples or runs), and their calls can disagree. The entries are a selection whose mix differs from that of the whole data set. Activity calls are given as the source filed them. Unless noted, the call rests on the fitted dose curve; in most records, active means well fitted curve in the direction sought with a large enough effect in the repeat runs; inconclusive means weak or mixed curves; inactive means no such curve, though single readings can be large; an effect the other way counts as inactive or inconclusive.
# By UniProt entry, the sequences of proteins in these tests, tags left out. Where a name states a change or a piece, a line headed by the entry shows the natural chain unless it says otherwise.
# UniProt P04150: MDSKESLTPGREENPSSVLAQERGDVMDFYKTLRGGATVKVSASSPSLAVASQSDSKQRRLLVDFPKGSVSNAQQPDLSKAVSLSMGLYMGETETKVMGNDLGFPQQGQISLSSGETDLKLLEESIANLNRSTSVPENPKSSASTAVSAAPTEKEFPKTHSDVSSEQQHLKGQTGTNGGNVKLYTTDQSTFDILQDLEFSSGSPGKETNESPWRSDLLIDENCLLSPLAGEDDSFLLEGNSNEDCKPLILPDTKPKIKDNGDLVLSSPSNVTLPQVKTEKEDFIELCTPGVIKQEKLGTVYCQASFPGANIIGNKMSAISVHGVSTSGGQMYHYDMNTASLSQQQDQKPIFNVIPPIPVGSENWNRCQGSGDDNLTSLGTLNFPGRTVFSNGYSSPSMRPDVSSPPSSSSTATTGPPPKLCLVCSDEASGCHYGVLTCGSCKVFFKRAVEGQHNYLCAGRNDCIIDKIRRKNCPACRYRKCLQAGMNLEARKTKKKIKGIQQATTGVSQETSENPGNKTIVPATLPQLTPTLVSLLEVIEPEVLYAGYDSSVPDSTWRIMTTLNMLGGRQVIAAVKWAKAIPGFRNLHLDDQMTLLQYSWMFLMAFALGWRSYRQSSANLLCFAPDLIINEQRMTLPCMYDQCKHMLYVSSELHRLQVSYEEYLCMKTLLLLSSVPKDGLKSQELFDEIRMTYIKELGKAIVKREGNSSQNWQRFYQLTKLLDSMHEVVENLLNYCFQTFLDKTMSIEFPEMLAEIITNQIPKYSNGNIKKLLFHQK
# UniProt Q12809: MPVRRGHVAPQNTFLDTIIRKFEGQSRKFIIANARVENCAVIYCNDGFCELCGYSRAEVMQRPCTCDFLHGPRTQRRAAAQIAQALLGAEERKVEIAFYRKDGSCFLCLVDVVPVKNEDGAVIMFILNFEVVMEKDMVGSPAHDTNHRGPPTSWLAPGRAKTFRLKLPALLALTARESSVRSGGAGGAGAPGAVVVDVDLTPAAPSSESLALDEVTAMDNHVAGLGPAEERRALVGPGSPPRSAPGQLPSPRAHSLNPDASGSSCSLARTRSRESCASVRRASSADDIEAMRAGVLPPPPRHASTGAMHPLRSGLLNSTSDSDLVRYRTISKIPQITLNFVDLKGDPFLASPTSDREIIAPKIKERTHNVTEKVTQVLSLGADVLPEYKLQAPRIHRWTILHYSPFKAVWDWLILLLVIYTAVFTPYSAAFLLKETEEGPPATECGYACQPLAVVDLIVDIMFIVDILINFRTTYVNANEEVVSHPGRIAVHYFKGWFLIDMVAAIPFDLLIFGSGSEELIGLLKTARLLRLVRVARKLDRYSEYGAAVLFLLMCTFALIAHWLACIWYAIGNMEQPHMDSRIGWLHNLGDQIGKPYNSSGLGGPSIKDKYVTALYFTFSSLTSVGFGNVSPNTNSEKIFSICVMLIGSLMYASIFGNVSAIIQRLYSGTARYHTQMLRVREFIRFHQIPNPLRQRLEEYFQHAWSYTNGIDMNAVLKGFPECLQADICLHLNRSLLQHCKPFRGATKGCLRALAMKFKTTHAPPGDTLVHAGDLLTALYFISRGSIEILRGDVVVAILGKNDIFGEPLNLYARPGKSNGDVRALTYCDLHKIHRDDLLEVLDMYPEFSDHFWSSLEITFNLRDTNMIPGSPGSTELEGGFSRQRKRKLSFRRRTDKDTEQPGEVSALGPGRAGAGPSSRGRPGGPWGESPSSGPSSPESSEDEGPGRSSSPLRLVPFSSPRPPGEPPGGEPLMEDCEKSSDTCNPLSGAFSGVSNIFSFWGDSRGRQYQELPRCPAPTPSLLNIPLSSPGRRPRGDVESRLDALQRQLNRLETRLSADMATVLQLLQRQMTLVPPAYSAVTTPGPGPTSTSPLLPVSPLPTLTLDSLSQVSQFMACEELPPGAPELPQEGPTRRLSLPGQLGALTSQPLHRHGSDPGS
# UniProt P33261, whole entry, looked up: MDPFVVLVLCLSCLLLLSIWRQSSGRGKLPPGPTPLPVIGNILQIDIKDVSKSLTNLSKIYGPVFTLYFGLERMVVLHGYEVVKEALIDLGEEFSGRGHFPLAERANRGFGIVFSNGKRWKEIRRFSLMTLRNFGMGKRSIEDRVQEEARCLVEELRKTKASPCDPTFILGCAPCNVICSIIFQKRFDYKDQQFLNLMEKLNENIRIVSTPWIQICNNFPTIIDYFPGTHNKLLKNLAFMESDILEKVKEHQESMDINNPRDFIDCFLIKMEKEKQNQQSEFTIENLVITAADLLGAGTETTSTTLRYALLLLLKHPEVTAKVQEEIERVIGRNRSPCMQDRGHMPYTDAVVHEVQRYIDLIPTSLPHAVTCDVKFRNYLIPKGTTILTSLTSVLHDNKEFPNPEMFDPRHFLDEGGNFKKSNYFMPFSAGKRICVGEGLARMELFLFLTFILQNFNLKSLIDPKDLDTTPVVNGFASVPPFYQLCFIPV
# What was measured:
# [1] = molecular target: Nuclear receptor subfamily 1 group I member 2 (Homo sapiens) (UniProt O75469); assay: Human pregnane X receptor (PXR) small molecule agonists, qHTS assay (AID 1346982); further: nearly all actives have a fitted effect of over 35% in size; further: potency means the concentration at half of the fitted maximal effect
# Summary of the method: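 Agonist mode qHTS: PXR-Luc HepG2 cells plated 5 hr before DMSO-dissolved compounds were pinned in, cultured 24 hr at 37 C, 5% CO2; ONE-Glo luminescence readout.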
# [2] = molecular target: Nuclear receptor subfamily 1 group I member 2 (Homo sapiens) (UniProt O75469); assay: CYP3A4 induction through human pregnane X receptor (PXR) by small molecules, qHTS assay (AID 1346984); further: nearly all actives have a fitted effect of over 40% in size
# Summary of the method: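 Steps: seed DPX-2 cells, 5 hr at 37C; pin-transfer compounds; 24 hr at 37C; add Luciferin-IPA (3uM final), 3 hr at 37C; add One-Glo, 30 min RT; read luminescence.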
# [3] = molecular target: Nuclear receptor subfamily 1 group I member 2 (Homo sapiens) (UniProt O75469); assay: Human pregnane X receptor (PXR) activation by small molecules, qHTS assay (AID 1346985); further: nearly all actives have a fitted effect of over 40% in size
# [4] = molecular target: Glucocorticoid receptor (Homo sapiens) (UniProt P04150); assay: qHTS assay to identify small molecule antagonists of the glucocorticoid receptor (GR) signaling pathway (AID 720692; active means well fitted inhibition curve with a large enough effect in the signal ratio in the repeat runs, not every such curve was filed as active; the % refers to the signal ratio); settings: GR-bla HeLa, beta-lactamase FRET ratio, dexamethasone-stimulated, 18 h; at 58.5 µM (top of the series)
# [5] = molecular target: Voltage-gated inwardly rectifying potassium channel KCNH2 (Homo sapiens) (UniProt Q12809); assay: Human Ether-a-go-go-Related Gene (hERG) channel small molecule antagonists: fluorescence cell-based qHTS assay (AID 1671200); settings: hERG-U2OS cells, FluxOR thallium flux fluorescence; further: potency means the concentration at half of the fitted maximal effect; nearly all actives have a fitted effect of over 50% in size
# Summary of the method: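 hERG-U2OS cells plated overnight at 37 C, loaded with FluxOR II dye 1 h at RT in dark; after 10 min, thallium stimulus added. Fluorescence (480/540 nm) read kinetically for 2 min at 1 s intervals.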
# [6] = molecular target: Cytochrome P450 2C19 (Homo sapiens) (UniProt P33261); assay: Cytochrome P450 Family 2 Subfamily C Member 19 (CYP2C19) small molecule antagonists: luciferase reporter qHTS assay (AID 1671197); settings: P450-Glo CYP2C19 enzyme, luciferin luminescence, 1 h; further: potency means the concentration at half of the fitted maximal effect; nearly all actives have a fitted effect of over 65% in size
# Summary of the method: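 Inhibition of CYP2C19 was scored from loss of luminescence in a P450-Glo proluciferin substrate assay, NADPH-started and run 1 h at 37C, with ketoconazole as positive control.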
structure (smiles),measurement,setting,value
O=C(O)c1cccnc1,Potency,[1],inactive
NC1=NCC2c3ccccc3Cc3ccccc3N12 (stereo not given),Potency,[1],inactive
same,Potency,[2],inactive
same,Potency,[3],inactive
O=C=Nc1ccc(Cc2ccc(N=C=O)cc2)cc1,Potency,[1],inactive
C[C@H]1O[C@H](O[C@H]2[C@H](O)[C@@H](O)[C@@H](O[C@H]3[C@H](O)[C@@H](O)[C@H](O)O[C@@H]3CO)O[C@@H]2CO)[C@H](O)[C@@H](O)[C@@H]1N[C@H]1C=C(CO)[C@@H](O)[C@H](O)[C@H]1O,Potency,[1],inactive
CCn1cc(C(=O)O)c(=O)c2cnc(N3CCCC3)nc21,activation,[1],inactive: -11.8% [at 8.39 µM]
same,Potency,[2],inactive
same,Potency,[3],inactive
Cc1cc(NC(=O)C2=C(O)c3ccccc3S(=O)(=O)N2C)no1,Potency,[1],inactive
Cc1ccccc1OCC(O)CO (stereo not given),Potency,[1],inactive
CC[N+](CC)(CC(=O)Nc1c(C)cccc1C)Cc1ccccc1,Potency,[1],inactive
O=C(O)CN(CCN(CC(=O)O)CC(=O)O)CC(=O)O,activation,[1],inactive: 4.59% [at 3.27 µM]
same,Potency,[2],inactive
same,Potency,[3],inactive
CN(C)CCOc1ccc(/C(=C(/CCCl)c2ccccc2)c2ccccc2)cc1,Potency,[1],active: 7.21 µM
NC(=O)NC1NC(=O)NC1=O (stereo not given),Potency,[1],inactive
same,Potency,[2],inactive
same,Potency,[3],inactive
COc1cc(Nc2c(C#N)cnc3cc(OCCCN4CCN(C)CC4)c(OC)cc23)c(Cl)cc1Cl,Potency,[1],inactive
O=P(O)(O)O,Potency,[1],inactive
same,Potency,[2],inactive
same,Potency,[3],inactive
C[C@H]1[C@H]2CC[C@H]3[C@@H]4CC=C5C[C@@H](N(C)C)CC[C@]5(C)[C@H]4CC[C@]23CN1C,Potency,[1],inactive
same,Potency,[2],inactive
same,Potency,[3],inactive
Oc1cccc2ccccc12,Potency,[1],active: 54.5 µM
CCN1CCC[C@H]1CNC(=O)c1cc(S(N)(=O)=O)ccc1OC,Potency,[1],inactive
CCCCNC(=O)NS(=O)(=O)c1ccc(C)cc1,Potency,[1],inactive
COc1nc(N)nc2c1ncn2[C@@H]1O[C@H](CO)[C@@H](O)[C@@H]1O,Potency,[1],inactive
same,Potency,[2],inactive
same,Potency,[3],inactive
CCOCCn1c(N2CCCN(C)CC2)nc2ccccc21,Potency,[1],inactive
same,Potency,[2],inactive
same,Potency,[3],inactive
CN1C(=O)CC(c2ccccc2)C1=O (stereo not given),Potency,[1],inactive
same,Potency,[2],inactive
same,Potency,[3],inactive
CC(N)CCCC(C)(C)O (stereo not given),Potency,[1],inactive
same,Potency,[2],inactive
same,Potency,[3],inactive
Cc1c(O)cccc1C(=O)N[C@@H](CSc1ccccc1)[C@H](O)CN1C[C@H]2CCCC[C@H]2C[C@H]1C(=O)NC(C)(C)C,Potency,[1],active: 23.7 µM and active: 33.5 µM
same,Potency,[2],inactive
C[N+](C)(C)CC(O)CC(=O)[O-] (stereo not given),Potency,[1],inactive
CC1(C)NC(=O)N(c2ccc([N+](=O)[O-])c(C(F)(F)F)c2)C1=O,Potency,[1],active: 27.3 µM and inactive
NS(=O)(=O)c1cc(C2(O)NC(=O)c3ccccc32)ccc1Cl (stereo not given),Potency,[1],inactive
same,Potency,[2],inactive
same,Potency,[3],inactive
ClC(Cl)Cl,Potency,[1],inactive
same,Potency,[2],inactive
same,Potency,[3],inactive
CO/N=C(/C(=O)N[C@@H]1C(=O)N2C(C(=O)O)=C(COC(N)=O)CS[C@H]12)c1ccco1,Potency,[1],inactive
same,Potency,[2],inactive
same,Potency,[3],inactive
CS(=O)(=O)Nc1ccc([N+](=O)[O-])cc1Oc1ccccc1,Potency,[1],inactive
same,Potency,[2],inactive
same,Potency,[3],inactive
CCCN1CCCC[C@H]1C(=O)Nc1c(C)cccc1C,Potency,[1],inactive
CC(C(=O)O)c1ccc2c(c1)Cc1cccnc1O2 (stereo not given),Potency,[1],inactive
Nc1nnc(-c2cccc(Cl)c2Cl)c(N)n1,Potency,[1],inactive
CC1CC(OC(=O)C(O)c2ccccc2)CC(C)(C)N1C (stereo not given),Potency,[1],inactive
same,Potency,[2],inactive
same,Potency,[3],inactive
CCO[C@@H]1O[C@H](C(COCc2ccccc2)OCc2ccccc2)[C@H](OCc2ccccc2)[C@H]1O (stereo not given in full),Potency,[1],active: 5.96 µM
CC1=CC(=O)NS(=O)(=O)O1,Potency,[1],inactive
same,Potency,[2],inactive
same,Potency,[3],inactive
C#C[C@]1(O)CC[C@H]2[C@@H]3CCc4cc(O)ccc4[C@H]3CC[C@@]21C,Potency,[1],active: 27.1 µM and active: 27.3 µM and active: 23.7 µM
CC(C)[N+]1(C)[C@@H]2CC[C@H]1CC(OC(=O)C(CO)c1ccccc1)C2 (stereo not given in full),"activity change, negative = inhibition",[4],inactive: 3.7% and inactive: -5.09%
C[C@@H](O)[C@H]1C(=O)N2C(C(=O)O)=C(S[C@@H]3CN[C@H](CNS(N)(=O)=O)C3)[C@H](C)[C@H]12,Potency,[5],active: 9.52 µM
CC(C)COCC(CN(Cc1ccccc1)c1ccccc1)N1CCCC1 (stereo not given),Potency,[5],active: 0.477 µM
OC(Cn1cncn1)(Cn1cncn1)c1ccc(F)cc1F,Potency,[6],active: 2.85 µM and active: 3.17 µM and active: 7.76 µM
O=C(O)/C=C/c1ccc(Cn2ccnc2)cc1,Potency,[1],inactive
same,Potency,[2],inactive
same,Potency,[3],inactive
Cc1ccc2c(c1)c1c3n2CCNC3CCC1 (stereo not given),Potency,[2],inactive
same,Potency,[3],inactive
CCCCc1ncc(/C=C(\Cc2cccs2)C(=O)O)n1Cc1ccc(C(=O)O)cc1,Potency,[1],inactive
same,Potency,[2],inactive
same,Potency,[3],inactive

# Reference: PubChem BioAssay (Tox21)
